# Assay results taken from patent US11414443B2, “Phospholipid derivatives and their use as medicaments” (USTAV MOLEKULARNI GENETIKY AV CR, V.V.I., priority 2017, dated 2022).
# Tested on: tumor cell cultures C32, TIB-75, LMH
# Assay: Cell state and growth in tumor cell cultures, controls and comparison products
# Conditions: 0-240 μM, 16 hours of culture
# Method: As a control, the starting phospholipids were used at the same concentrations and conditions.
# The cytotoxic activity of the products was tested in tumor cell cultures C32 (human melanoma), TIB-75 (inducing murine hepatocarcinoma), LMH (chicken hepatocarcinoma).
# (§1) A) C32 cells were cultured in D-MEM medium containing 10% fetal serum and penicillin+streptomycin at 37° C. in air/5% CO2 atmosphere saturated with water vapor. Each well contained 5×10^4 cells and 0.5 ml medium. The tested products were added to the cells at concentrations of 0, 2.5, 5, 10, 20, 40, 80, 160 and 240 μM. After 16 hours of culture, cell state was recorded.
# as §1, with “B) LMH” for “A) C32”, “phospholipids” for “products”
# as §1, with “C) TIB-75” for “A) C32”, “phospholipids” for “products”
substance,measurement,value
N-palmitoyl-phosphatidylethanolamine [N-palmitoyl PE],cytotoxic activity: effect on phenotype and rate of cell growth,did not affect the phenotype or reduce the rate of cell growth
